In US20190314361A1 (Athenex Therapeutics Limited, priority 2018, published 2019):

Tests used:
[1] = Paclitaxel pharmacokinetics in rats after single oral dose with Compound A; format: in vivo, rat
[2] = Paclitaxel pharmacokinetics in dogs after single oral dose with Compound A; format: in vivo, dog
[3] = dogs, single oral dose paclitaxel 6 mg/kg with Compound A 3 mg/kg
[4] = single oral dose paclitaxel 2 mg/kg with Compound A
[5] = single oral dose paclitaxel 4 mg/kg with Compound A
[6] = single oral dose paclitaxel 6 mg/kg with Compound A

What does the source list for `CC(=O)O[C@H]1C(=O)[C@@]2(C)[C@H]([C@H](OC(=O)c3ccccc3)[C@]3(O)C[C@H](OC(=O)[C@H](O)[C@@H](NC(=O)c4ccccc4)c4ccccc4)C(C)=C1C3(C)C)[C@]1(OC(C)=O)CO[C@@H]1C[C@@H]2O` [Paclitaxel, 5,20-Epoxy-1,2,4,7,10-13-hexahydroxytax-11-en-9-one-4,10-diacetate 2-benzoate 13-ester with (2R,3S)—N-benzoyl-3-phenylisoserine]?
t1/2 Paclitaxel ([1]; single oral dose paclitaxel 5 mg/kg with Compound A): 8.2 h; t1/2 Paclitaxel ([1]; single oral dose paclitaxel 10 mg/kg with Compound A): 8.7 h; t1/2 Paclitaxel ([1]; single oral dose paclitaxel 20 mg/kg with Compound A): 7.5 h; Cmax Paclitaxel [2, 4]: 128 ng/mL; t1/2 Paclitaxel [2, 4]: 7.4 h; Cmax Paclitaxel [2, 5]: 661 ng/mL; t1/2 Paclitaxel [2, 5]: 8.1 h; Cmax Paclitaxel [2, 6]: 1109 ng/mL; t1/2 Paclitaxel [2, 6]: 7.3 h; Cmax ([3]; Fasted): 683.6 ± 174.8 ng/mL; AUC Fed/ AUCFasted Ratio [3]: 53.1
